Biological target: 6 × His-ATD2B (amino-terminal domain of NR2B subunit), wild type (Rattus norvegicus, UniProt Q00960)

The chains behind the UniProt entries cited, without tags or fusion partners. Residues count along the entry.
UniProt Q00960, 27-393: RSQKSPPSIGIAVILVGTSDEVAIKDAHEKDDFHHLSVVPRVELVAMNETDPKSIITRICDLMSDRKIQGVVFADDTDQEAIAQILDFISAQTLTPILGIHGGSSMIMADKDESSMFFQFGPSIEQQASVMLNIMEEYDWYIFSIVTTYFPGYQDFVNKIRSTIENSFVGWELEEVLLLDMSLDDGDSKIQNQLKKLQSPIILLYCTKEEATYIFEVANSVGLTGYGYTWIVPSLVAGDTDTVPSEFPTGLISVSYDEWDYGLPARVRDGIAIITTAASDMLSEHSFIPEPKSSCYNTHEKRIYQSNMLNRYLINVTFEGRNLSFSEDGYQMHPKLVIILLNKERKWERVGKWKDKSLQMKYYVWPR

C[C@@H](CN1CCC(Cc2ccccc2)CC1)[C@@H](O)c1ccc(O)cc1 [RO25,6981]
Ratio of KD(ifenprodil) to KD(RO25,6981): ~ 9 fold
